Experimental data: patent publication US7659252B2, “Transdermal delivery peptides and method of use thereof” (Novomed Technologies, Inc. (Shanghai), priority 2005, dated 2010)
Counter-ions that a name gives are not always drawn.

System: male Sprague-Dawley rats
Assay: Transdermal apomorphine delivery, APO-induced penile erections
Assay type: in vivo, rat
Settings: co-administered TD-1 fixed at 0.8 mg/kg
Method: The transdermal-enhancing effect of TD-1 on APO transdermal delivery was tested in male Sprague-Dawley rats that weigh 200-250 g and were kept on a 12 hour on/off light cycle with food and water ad libitum. All behavioral studies were performed from 9:00 am to 4:00 pm at 24±1° C. While the animals were anesthetized with Urethane, the hair in an area of approximately 3.0 cm×3.0 cm in the interscapular region was carefully trimmed using scissors, with caution not to damage the skin (rats with any visible sign of skin damage were not used). Rats were allowed to recover for at least 24 hours before the experiments. One hundred ul cream containing indicated amounts of apomorphine (APO) was placed on the exposed skin and spread evenly using the side of a pipet tip. The cream formulation contains: glyceryl monostearate (7.5% by weight), hydroxypropyl methylcellulose (0.5% by weight), isopropyl myristate (10% by weight), methylparaben (0.5% by weight), propylparaben (0.5% by weight), polyxyl-40-stearat (11% by weight), saline (70% by weight), and various doses of APO and TD-1 that were coadministered.
Immediately after administration, rats were placed into individual polystyrene cages (32 cm long, 30 cm wide, 30 cm high) for behavioral observation. […]

Structure (SMILES): CN1CCc2cccc3c2[C@H]1Cc1ccc(O)c(O)c1-3 [APO, Apomorphine HCl, reference compound]
- APO dose needed to achieve the maximum response in numbers of PEs: at least 0.8 mg/kg
- APO dose with no significant effect in increasing numbers of PEs: ≤ 0.4 mg/kg
